Only a part is listed here, and it is no random draw. Records with an inconclusive call do not appear. Active and inactive are the calls of the source. How the source made its calls, unless noted: active means hit-call score of the fitted dose curve at least 0.9, where 1 is the maximum; inconclusive means response in the unintended direction; inactive means score below 0.9.

Protein sequences, listed by entry. Tags and fused reporters are not part of them.
UniProt P28223, whole entry, looked up: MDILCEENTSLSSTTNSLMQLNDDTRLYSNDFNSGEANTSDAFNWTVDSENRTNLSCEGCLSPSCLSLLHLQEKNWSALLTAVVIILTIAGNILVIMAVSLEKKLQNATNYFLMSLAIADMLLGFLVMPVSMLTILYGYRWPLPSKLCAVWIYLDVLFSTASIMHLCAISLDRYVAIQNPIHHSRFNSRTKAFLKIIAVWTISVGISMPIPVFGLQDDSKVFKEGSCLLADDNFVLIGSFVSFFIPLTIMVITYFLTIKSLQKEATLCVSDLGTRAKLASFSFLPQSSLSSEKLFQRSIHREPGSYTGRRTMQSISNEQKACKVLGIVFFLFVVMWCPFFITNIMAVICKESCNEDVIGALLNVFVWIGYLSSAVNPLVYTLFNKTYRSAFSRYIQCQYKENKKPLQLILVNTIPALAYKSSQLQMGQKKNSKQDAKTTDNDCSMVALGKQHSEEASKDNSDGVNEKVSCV
UniProt P33261, whole entry, looked up: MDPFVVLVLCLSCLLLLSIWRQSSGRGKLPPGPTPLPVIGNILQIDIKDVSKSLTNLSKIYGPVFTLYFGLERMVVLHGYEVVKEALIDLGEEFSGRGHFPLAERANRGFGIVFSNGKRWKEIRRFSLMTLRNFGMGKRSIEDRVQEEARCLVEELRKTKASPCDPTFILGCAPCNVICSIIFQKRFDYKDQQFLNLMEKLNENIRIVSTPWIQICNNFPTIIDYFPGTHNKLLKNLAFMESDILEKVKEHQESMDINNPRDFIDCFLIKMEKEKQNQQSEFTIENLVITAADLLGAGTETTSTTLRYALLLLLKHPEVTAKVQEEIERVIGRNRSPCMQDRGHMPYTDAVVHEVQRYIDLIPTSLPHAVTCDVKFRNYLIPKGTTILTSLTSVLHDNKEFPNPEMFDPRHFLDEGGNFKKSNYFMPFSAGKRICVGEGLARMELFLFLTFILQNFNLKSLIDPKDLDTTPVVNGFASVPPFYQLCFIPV
UniProt P08172, whole entry, looked up: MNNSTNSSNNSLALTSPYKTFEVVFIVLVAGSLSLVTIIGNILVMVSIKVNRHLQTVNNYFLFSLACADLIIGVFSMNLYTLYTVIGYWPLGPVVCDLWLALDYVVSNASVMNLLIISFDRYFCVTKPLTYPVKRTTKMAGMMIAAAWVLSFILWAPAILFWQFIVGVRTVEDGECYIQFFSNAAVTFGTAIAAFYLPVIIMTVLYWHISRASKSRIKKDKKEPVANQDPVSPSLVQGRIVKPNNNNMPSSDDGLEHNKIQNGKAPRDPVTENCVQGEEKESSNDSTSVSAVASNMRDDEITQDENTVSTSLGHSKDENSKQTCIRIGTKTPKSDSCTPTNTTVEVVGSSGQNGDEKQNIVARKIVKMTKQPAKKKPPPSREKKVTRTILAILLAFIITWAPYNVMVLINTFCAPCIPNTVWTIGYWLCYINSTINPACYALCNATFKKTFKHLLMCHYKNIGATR
UniProt P30536, whole entry, looked up: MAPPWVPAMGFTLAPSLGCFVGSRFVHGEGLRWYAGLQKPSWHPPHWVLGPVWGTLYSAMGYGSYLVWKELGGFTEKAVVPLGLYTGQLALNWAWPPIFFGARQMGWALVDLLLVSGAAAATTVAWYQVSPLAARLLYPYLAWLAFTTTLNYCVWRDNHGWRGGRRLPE

Test [1] addresses human Serotonin, 5-Hydroxytryptamine Receptor 2A (5HT2A), HTR2A (gene 3356) (UniProt P28223). The test can be described thus: NVS_GPCR_h5HT2A: NovaScreen (NVS) G Protein-Coupled Receptor Assay for human Serotonin, 5-Hydroxytryptamine Receptor 2A (5HT2A) (AID 2283249). The method in brief:
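Radioligand displacement on human cortex tissue extract, counted by filtration and scintillation 1.5 h post-dosing. Initial single-concentration screen at 25 uM in duplicate, concentration series in follow-up; DMSO as baseline.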

Read-out in test [2]: Cytochrome P450 2C19 (Homo sapiens) (UniProt P33261)
The test can be described thus: LTEA_HepaRG_CYP2C19: Life Technologies and Expression Analysis (LTEA) Assay for CYP2C19 using HepaRG (AID 2283482; active means hit-call score of the fitted dose curve at least 0.9, where 1 is the maximum; inactive means score below 0.9). To be noted: actives raise or lower the signal; mRNA level, 48 h. The method in brief:
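HepaRG, 48 h chemical exposure, 8-pt half-log series from 100 uM in 0.5% DMSO, duplicates. Readout: CYP2C19 mRNA by TaqMan qRT-PCR, housekeeping-normalized. Bidirectional fit vs DMSO baseline; phenobarbital 1mM as induction control.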

The target of test [3] is Muscarinic acetylcholine receptor M2 (Homo sapiens) (UniProt P08172). The test can be described thus: NVS_GPCR_hM2: NovaScreen (NVS) G Protein-Coupled Receptor Assay for human Muscarinic, M2 Receptor (AID 2283273). As for the experimental part:
NVS_GPCR_hM2 is a biochemical, single-readout assay that uses extracted gene-proteins from CHO in a cell-free assay. Measurements were taken 1 hour after chemical dosing in a 96-well plate.NVS_GPCR_hM2 is one of one assay component(s) measured or calculated from the NVS_GPCR_hM2 assay. It is designed to make measurements of radioligand binding, a form of binding reporter, as detected with scintillation counting signals by Filter-based radiodetection technology.Data from the assay component NVS_GPCR_hM2 was analyzed into 1 assay endpoint. This assay endpoint, NVS_GPCR_hM2, was analyzed in the positive analysis fitting direction relative to DMSO as the negative control and baseline of activity. […] Furthermore, this assay endpoint can be referred to as a primary readout, because the performed assay has only produced 1 assay endpoint. […]
Binding assays used specific radioligands (tritiated, iodinated) with non-radioactive competitive displacement ligands in agonist or antagonist protocols (as indicated) and various reference compounds and inhibitors to titrate specific binding to receptors and transporters. Most enzyme assays (CYPs, kinases, phosphatases, proteases, HDACs) used recombinant protein and specific substrates (fluorescence mostly, some colorimetric and radioactive) and inhibitors, followed by a biochemical separation of substrate and product. […]

For test [4], the target named is human Peripheral-type Benzodiazepine Receptor (PBR), TSPO (gene 706) (UniProt P30536). Put plainly: NVS_MP_hPBR: NovaScreen (NVS) Membrane Protein Assay for human Peripheral-type Benzodiazepine Receptor (PBR) (AID 2283331).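 Further: hits reduce radioligand binding relative to DMSO baseline.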

Usually AC50 stands for the concentration at which the activity in the assay is half-maximal. Turning to `CCc1nc(N)nc(N)c1-c1ccc(Cl)cc1`, the AC50 in test [1] is active: 4.7 µM; in test [2] it was active: 50 µM. As for `NC(=NCCCCCCN=C(N)/N=C(\N)Nc1ccc(Cl)cc1)/N=C(\N)Nc1ccc(Cl)cc1`, the AC50 in test [3] was active: 969 nM. Regarding `CCC(C)N(C)C(=O)c1cc2ccccc2c(-c2ccccc2Cl)n1` (stereo not given), in test [4], the AC50 is active: 4.77 nM.

In the case of `Cc1c(C)c2c(c(C)c1O)CCC(C)(COc1ccc(CC3SC(=O)NC3=O)cc1)O2` (stereo not given), the AC50 in test [2] is active: 26.1 µM.

Values taken from PubChem BioAssay (EPA / NIEHS).
